# Measurements from ChEMBL document CHEMBL2146377, “Rational design of 4-aryl-1,2,3-triazoles for indoleamine 2,3-dioxygenase 1 inhibition” (J Med Chem, 2012).
# Amino acid sequences for entries named in this document (tags omitted).
# UniProt P14902, whole entry: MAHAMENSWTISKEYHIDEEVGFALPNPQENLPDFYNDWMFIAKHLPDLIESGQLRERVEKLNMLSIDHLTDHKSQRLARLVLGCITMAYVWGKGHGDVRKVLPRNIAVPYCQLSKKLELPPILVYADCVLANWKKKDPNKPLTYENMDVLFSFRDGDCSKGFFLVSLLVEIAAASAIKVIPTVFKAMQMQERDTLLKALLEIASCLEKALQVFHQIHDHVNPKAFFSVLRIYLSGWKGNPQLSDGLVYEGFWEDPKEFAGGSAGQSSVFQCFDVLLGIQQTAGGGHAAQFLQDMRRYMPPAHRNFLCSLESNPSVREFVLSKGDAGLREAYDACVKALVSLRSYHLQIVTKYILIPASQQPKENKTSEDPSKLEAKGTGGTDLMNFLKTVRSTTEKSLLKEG
# What was measured:
# [1] = target: T1, Indoleamine 2,3-dioxygenase 1 (Homo sapiens, UniProt P14902); assay: Inhibition of human recombinant N-terminal His-tagged IDO1 (Ala2 to Gly403) overexpressed in Escherichia coli BL21 at pH 7.4 after 60 mins by HPLC analysis
# [2] = target: T1, Indoleamine 2,3-dioxygenase 1; assay: Inhibition of human IDO1 transfected in mouse P815B clone-6 cells by HPLC analysis; format: cell-based
# [3] = target: T1, Indoleamine 2,3-dioxygenase 1; assay: Inhibition of human recombinant N-terminal His-tagged IDO1 (Ala2 to Gly403) overexpressed in Escherichia coli BL21 at pH 6.5 after 60 mins by HPLC analysis
# [4] = Dissociation constant, pKa of the compound at pH 11 to 12 by spectrophotometric analysis; format: physicochemical
# [5] = physchem; conditions: pH 2
pKa [4],pKa [5],SMILES,IC50 [1],IC50 [2],IC50 [3]
–,–,Oc1ccc(Cl)cc1-c1c[nH]nn1,71 nM,80 nM,330 nM
1.6,8.6,c1ccc2[nH]nnc2c1 [BENZOTRIAZOLE],–,–,–
